System: mTORC1
Test: Western blot of pS6 in rat brain and selected peripheral organs
Type: in vivo
Settings: Example D; Leu 500 mg/kg oral; 1 hr post-dose
Description: Study Design: Thirty (30) male rats weighing between 175 and 200 g were randomized into 3 study groups (n=10), following a 5-day acclimation period. One hour following dosing rats were sacrificed by conscious decapitation, plasma, brain and selected peripheral tissues were harvested for compound level and WB analysis. Tissues were prepared for WB to quantitate the mTORC1 substrate pS6 as a measure of mTORC1 activity.
Preparation of Test Articles: NV-5138 (Navitor, Lot #12) and Leucine (Leu, Sigma; #L8912) were prepared by dissolving in Veh (0.5% methylcellulose/0.1% Tween-80) at a concentration of 16 mg/mL and 100 mg/mL, respectively. The dosing volume based on the weight of the animal (10 mL/kg) was administered by oral gavage. Test articles were prepared the day of dosing.
Tissues Preparations: One hour following dosing rats were sacrificed by conscious decapitation, plasma, brain and peripheral tissues were harvested and immediately frozen in liquid nitrogen. Tissues were thawed and homogenized for 1 min twice using MP homogenizer in Lysis Buffer (Cell lysis buffer: 1% Triton X-100, 50 mM HEPES pH 7.4, 100 mM NaCl, 2 mM EDTA, 10 mM Beta-glycerophosphate, 10 mM Sodium pyrophosphate, and 1 protease inhibitor tab per 50 mL fresh) at 4° C. Lysates were then sonicated on ice for 20 s at 50% amplitude. The protein concentration was determined by Bradford assay and all samples were mixed with loading buffer (50 mM Tris-HCl pH 6.8, 2% SDS, 5% glycerol, 5% β-mercaptoethanol and 0.01% Bromophenol blue) and stored at −20° C. until WB analysis.
Western Blot (WB) Analysis. Equal amounts of each sample (15 μg of total protein) were loaded and separated on NuPAGE 4-12% Bis-Tris gels and transferred to PVDF membrane (Immobilon-FL PVDF membrane, Millipore) using CAPS Buffer (10 mM 3-(Cyclohexylamino)-1-propanesulfonic acid, 12.5% Ethanol pH=10). After transfer, membranes were incubated for 1 hr at room temperature in Odyssey blocking buffer (Licor). After blocking, membranes were incubated at 4° C. overnight with primary antibodies. Primary antibodies used were rabbit anti-[…] (cell signaling; #5364) at 1:1000, mouse anti-GAPDH (Sigma; #G8795) at 1:1000 and mouse anti-a-tubulin (Sigma; #T5168) at 1:10000 in Odyssey blocking buffer. The next day, membranes were washed three times in 1×TBS-Tween (25 mM Tris, pH 7.4, 3.0 mM KCl, 140 mM NaCl and 0.05% Tween-20) and incubated with dye-coupled secondary antibodies (goat anti-mouse IRdye680, and goat anti-rabbit IRdye800 from LI-COR) at 1:20000 in Odyssey blocking buffer for 30 min then wash three times in IX TBS-Tween. Signals were quantified using the Odyssey Infrared Imaging System (LI-COR Bioscience). The resulting densitometric readings were used to generate a ratio of phopho-protein to a-tubulin or GAPDH. The resulting ratio was further normalized to vehicle treated control group.

CC(C)C[C@H](N)C(=O)O [Leu, Leucine, reference compound]
level of pS6 in rat epididymal fat: significantly increased | level of pS6 in rat heart: significantly increased | level of pS6 in rat kidney: significantly increased | level of pS6 in rat tibialis anterior: significantly increased | pS6 levels in liver: significant increase | pS6 levels in testes: significant increase
